The text below walks through data of PubChem BioAssay AID781 (Emory University Molecular Libraries Screening Center, 2007).

The chains behind the UniProt entries cited, without tags or fusion partners.
UniProt P63103, whole entry: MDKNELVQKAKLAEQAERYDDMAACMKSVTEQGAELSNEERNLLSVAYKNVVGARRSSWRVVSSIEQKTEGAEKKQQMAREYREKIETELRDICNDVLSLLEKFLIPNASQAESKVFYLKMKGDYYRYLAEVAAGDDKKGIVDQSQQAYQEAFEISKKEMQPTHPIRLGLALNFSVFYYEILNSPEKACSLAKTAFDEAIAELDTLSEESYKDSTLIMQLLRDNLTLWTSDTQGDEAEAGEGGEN

The entries are a selection whose mix differs from that of the whole data set. Some results for these compounds are left out of this collection, so the calls shown say nothing about other tests. Calls of active or inactive are those of the source.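 Rule for the calls: active = inhibition above about 70% (limit read from the data); inactive = the rest.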

For the experiment, the target named is 14-3-3 protein zeta/delta (Bos taurus) (UniProt P63103). Briefly: inhibitors of 14-3-3 zeta/Bad binding, primary screen, biochemical, TR-FRET, bovine 14-3-3 zeta (AID 781).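 Note: 0% = full 14-3-3 plus peptide FRET controls and 100% = background without 14-3-3.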 Conditions: TR-FRET 14-3-3zeta/Dy647-pBad peptide displacement, 1 h; at 21.7 µM; hits give high values.
On to `CC(C)N1C(=O)CC2(CCN(CCOC(=O)C(O)(c3ccccc3)c3ccccc3)CC2)C1=O`, for which the inhibition was inactive: 15.3%.
Turning to `CCN(CC)CC(C)C(C)OC(=O)C(O)(c1ccccc1)c1ccccc1` (stereo unspecified), the inhibition is inactive: 0.73%.
Take `O=C(NCC1(N2CCCCC2)CCCCC1)c1cc([N+](=O)[O-])ccc1Cl`: the inhibition is inactive: -7.25%.
Turning to `CCN1CCCC(OC(=O)C2(O)c3ccccc3C=Cc3ccccc32)C1` (stereo unspecified), the inhibition was inactive: 0.16%.
`C=CCN1CCN(CCOC(=O)C(O)(c2ccccc2)c2ccccc2)CC1`: the inhibition is inactive: 13.8%.
`CN(C)C1CCCC1OC(=O)C(O)(c1ccccc1)c1ccccc1` (stereo unspecified): the inhibition was inactive: -4.58%.
Take `Cc1ccccc1C(=O)NCC1(N2CCCCC2)CCCCC1`: the inhibition is inactive: 15.2%.
Turning to `COc1cccc(C(=O)NCC2(N3CCCCC3)CCCCC2)c1`, the inhibition is inactive: -7.74%.
On to `CN(C)c1cccc(C(=O)NCC2(N(C)C)CCCCC2)c1`, for which the inhibition is inactive: 7.77%.
As for `COc1ccc(Br)c(C(=O)NCC2(N3CCCCC3)CCCCC2)c1`, the inhibition was inactive: 5.14%.
As for `O=C(OC1CN2CCC1CC2)C(CO)(c1ccccc1)c1ccccc1` (stereo unspecified), the inhibition was inactive: -8.53%.
